Experimental data from patent US4900748A (priority 1988, dated 1990).

The chains behind the UniProt entries cited, without tags or fusion partners. Residues count along the entry.
UniProt O42275, 24-633: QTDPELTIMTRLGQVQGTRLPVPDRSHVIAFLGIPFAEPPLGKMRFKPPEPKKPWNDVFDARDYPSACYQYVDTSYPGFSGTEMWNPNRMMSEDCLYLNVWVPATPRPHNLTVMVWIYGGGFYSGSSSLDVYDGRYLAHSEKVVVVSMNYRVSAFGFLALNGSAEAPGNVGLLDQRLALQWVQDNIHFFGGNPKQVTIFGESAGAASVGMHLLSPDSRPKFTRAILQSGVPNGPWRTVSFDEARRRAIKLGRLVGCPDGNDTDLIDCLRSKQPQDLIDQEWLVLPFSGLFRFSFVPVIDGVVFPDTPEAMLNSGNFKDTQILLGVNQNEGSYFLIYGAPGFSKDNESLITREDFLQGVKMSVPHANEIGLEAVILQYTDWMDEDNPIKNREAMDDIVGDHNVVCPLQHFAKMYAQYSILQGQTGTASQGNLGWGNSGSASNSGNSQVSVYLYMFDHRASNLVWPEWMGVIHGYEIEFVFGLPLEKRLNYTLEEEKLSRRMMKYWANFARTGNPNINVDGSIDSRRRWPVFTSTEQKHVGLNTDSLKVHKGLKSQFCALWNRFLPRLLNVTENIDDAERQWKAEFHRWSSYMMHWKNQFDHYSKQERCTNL
UniProt P06276, 29-602: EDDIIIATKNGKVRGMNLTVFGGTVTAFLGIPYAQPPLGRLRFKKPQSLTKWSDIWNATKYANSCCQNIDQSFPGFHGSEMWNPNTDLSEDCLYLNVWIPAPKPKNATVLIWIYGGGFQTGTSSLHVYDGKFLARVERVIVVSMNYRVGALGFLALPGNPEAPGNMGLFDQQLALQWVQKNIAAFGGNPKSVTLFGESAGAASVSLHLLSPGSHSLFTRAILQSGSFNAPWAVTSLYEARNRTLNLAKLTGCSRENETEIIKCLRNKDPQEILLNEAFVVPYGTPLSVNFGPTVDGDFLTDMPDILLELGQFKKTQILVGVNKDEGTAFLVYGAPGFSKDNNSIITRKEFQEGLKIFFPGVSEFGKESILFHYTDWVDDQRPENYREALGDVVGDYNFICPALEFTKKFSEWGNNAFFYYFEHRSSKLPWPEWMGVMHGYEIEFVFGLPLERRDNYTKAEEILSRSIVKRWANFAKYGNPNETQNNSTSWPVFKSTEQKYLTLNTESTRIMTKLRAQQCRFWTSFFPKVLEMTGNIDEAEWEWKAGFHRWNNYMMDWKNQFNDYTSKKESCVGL
UniProt P22303, 32-614: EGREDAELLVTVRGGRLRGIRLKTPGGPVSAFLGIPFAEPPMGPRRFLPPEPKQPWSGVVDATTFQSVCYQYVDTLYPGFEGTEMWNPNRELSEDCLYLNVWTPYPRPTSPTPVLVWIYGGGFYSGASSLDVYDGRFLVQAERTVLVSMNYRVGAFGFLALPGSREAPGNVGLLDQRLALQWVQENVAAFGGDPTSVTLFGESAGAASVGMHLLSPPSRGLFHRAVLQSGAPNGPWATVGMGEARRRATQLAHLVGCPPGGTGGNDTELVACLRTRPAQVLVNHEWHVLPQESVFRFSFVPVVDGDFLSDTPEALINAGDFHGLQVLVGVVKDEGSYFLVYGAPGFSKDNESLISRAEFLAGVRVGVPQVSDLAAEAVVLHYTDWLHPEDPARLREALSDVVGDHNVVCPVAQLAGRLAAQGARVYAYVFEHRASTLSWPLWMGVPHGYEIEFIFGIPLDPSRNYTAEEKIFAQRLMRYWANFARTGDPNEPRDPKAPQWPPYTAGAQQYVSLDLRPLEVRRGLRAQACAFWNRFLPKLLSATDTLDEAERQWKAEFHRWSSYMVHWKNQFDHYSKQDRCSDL

What was measured:
[1] = target: Acetylcholinesterase (Eel) (Electrophorus electricus, UniProt O42275); assay: biochemical; type: biochemical
[2] = target: Butyrylcholinesterase (Cortex) (Homo sapiens, UniProt P06276); assay: biochemical
[3] = target: Butyrylcholinesterase (Plasma) (Homo sapiens, UniProt P06276); assay: biochemical
[4] = target: Acetylcholinesterase (Cortex) (Homo sapiens, UniProt P22303); assay: biochemical; type: biochemical
[5] = target: Acetylcholinesterase (Caudate) (Homo sapiens, UniProt P22303); assay: biochemical
[6] = target: Acetylcholinesterase (RBC) (Homo sapiens, UniProt P22303); type: biochemical
acetylcholinesterase = type: biochemical; conditions: read-out: IC50, antiacetylcholinesterase (approximate)
[7] = read-out: IC50 Acetylcholinesterase Cortex
[8] = read-out: IC50 Acetylcholinesterase Eel

Row | SMILES | IC50 [4, 7] [nM] | IC50 [5] [nM] | IC50 [6] [nM] | IC50 [2] [nM] | IC50 [1, 8] [nM] | also measured
1 | CNC(=O)Oc1ccc2c(c1)[C@]1(C)CCN[C@@H]1N2C [YU-96, N--norphysostigmine] |  |  |  |  |  | IC50 [1]: 56.3 ± 1.8 nM; IC50 ([2]; read-out: IC50 Butyrylcholinesterase Cortex): 34.9 ± 16.9 nM; IC50 [3]: 1.82 ± 0.74 nM
2 | COc1ccc(NC(=O)Oc2ccc3c(c2)[C@]2(C)CCN(C)[C@@H]2N3C)cc1 [YU-114, methoxyphenyl carbamoyleseroline] | 229 ± 40 | 276 ± 9 | 347 ± 10 |  |  | IC50 (acetylcholinesterase): ~300 nM
3 | CC(C)NP(=O)(NC(C)C)OP(=O)(NC(C)C)NC(C)C [iso-OMPA, reference compound] |  |  |  | 6700 |  | 
4 | C=CCN1CC[C@@]2(C)c3cc(OC(=O)NC)ccc3N(C)[C@@H]12 [YU-110, N--allyl physostigmine] | 31.7 ± 10.2 | 40.8 ± 18.7 | 44.7 ± 26 |  | 69.2 ± 25.3 | 
5 | C=CC[N+](C)(C)c1ccc(CCC(=O)CCc2ccc([N+](C)(C)CC=C)cc2)cc1 [BW284c51, reference compound] |  | 22 |  | 300000 |  | IC50 [4]: 28 nM
6 | CNC(=O)Oc1ccc2c(c1)[C@]1(C)CCN(C)[C@@H]1N2C [(-) physo, (-)-physostigmine, reference compound] |  |  |  |  | 61 ± 18 | 
7 | CCCCCCCCNC(=O)Oc1ccc2c(c1)[C@]1(C)CCN(C)[C@@H]1N2C [YU-71, eseroline octylcarbamate] | 15 ± 1 | 12 ± 10 | 16 ± 4 |  | 110 ± 110 | IC50 [1]: 110 nM
8 | CNC(=O)Oc1ccc2c(c1)[C@]1(C)CCN(Cc3ccccc3)[C@@H]1N2C [YU-94, N--benzylphysostigmine] |  |  |  | 54.2 ± 19 |  | IC50 [3]: 10.5 ± 3.8 nM

Read-outs that look alike come from different tables or passages of the source.
